Source: ChEMBL document CHEMBL1130592, “The synthesis and biological activity of a novel series of diazepine MMP inhibitors” (Bioorg Med Chem Lett, 1998)

Target: T1, Interstitial collagenase (Homo sapiens, UniProt P03956)
T1 sequence (P03956 whole entry): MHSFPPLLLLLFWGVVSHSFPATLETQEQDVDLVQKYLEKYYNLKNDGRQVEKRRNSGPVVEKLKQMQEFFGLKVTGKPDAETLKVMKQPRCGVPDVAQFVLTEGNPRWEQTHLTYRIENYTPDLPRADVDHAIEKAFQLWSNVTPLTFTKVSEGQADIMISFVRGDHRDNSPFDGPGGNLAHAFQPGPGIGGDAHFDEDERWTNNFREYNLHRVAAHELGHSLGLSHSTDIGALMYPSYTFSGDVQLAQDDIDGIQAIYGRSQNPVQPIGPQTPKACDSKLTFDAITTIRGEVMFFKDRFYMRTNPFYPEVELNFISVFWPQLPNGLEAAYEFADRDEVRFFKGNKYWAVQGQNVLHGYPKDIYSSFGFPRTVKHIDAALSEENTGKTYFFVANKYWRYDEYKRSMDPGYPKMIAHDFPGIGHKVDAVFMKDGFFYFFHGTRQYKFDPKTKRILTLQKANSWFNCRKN
Assay: Inhibition of matrix metalloprotease-1 (MMP-1)

SMILES: COc1ccc(S(=O)(=O)N(Cc2cccnc2)[C@@H](C(=O)NO)C(C)C)cc1 [CGS-27023A]
- IC50: 15 nM
